Values of other authors in patent publication US20060135510A1 (The Trustees of the University of Pennsylvania, priority 2004, published 2006).

System: metastatic breast cancer
Conditions: first line of treatment in metastatic breast cancer; cited from earlier work

For Trastuzumab, the response rate is given as 25%.
